Results from PubChem BioAssay (EPA / NIEHS).
This is one part of the list. Inconclusive results are not listed. The source made the active and inactive calls. Rule for the calls: active = hit-call score of the fitted dose curve at least 0.9, where 1 is the maximum; inactive = score below 0.9.

Assay: ATG_M_61_TRANS: Attagene TRANS-FACTORIAL HepG2 Assay for M61 Transcription Factor (Internal Marker) (AID 2282988)
Conditions: HepG2 Attagene TRANS M61 internal marker reporter
Description: ATG_TRANS is a cell-based, multiplexed-readout assay that uses HepG2, a human liver cell line, with measurements taken at 24 hours after chemical dosing in a 24-well plate.ATG_M_61_TRANS is one of 30 assay component(s) measured or calculated from the ATG_TRANS assay. It is designed to make measurements of mRNA induction, a form of inducible reporter, as detected with fluorescence intensity signals by Reverse transcription polymerase chain reaction (RT-PCR) and Capillary electrophoresis technology.Data from the assay component ATG_M_61_TRANS was analyzed into 1 assay endpoint. This assay endpoint, ATG_M_61_TRANS, was analyzed in the positive analysis fitting direction relative to DMSO as the negative control and baseline of activity. […] Furthermore, this assay endpoint can be referred to as a secondary readout, because this assay has produced multiple assay endpoints where this one serves a background control function. […]
Human liver HepG2 cells are transiently transfected with multiple reporter transcription units (MRTUs) in 6-well plates using FuGene 6 reagent (Roche; 3 ml FuGene/1 mg DNA). […] A major difference between the CIS and TRANS system is that in CIS activities of endogenous TFs are measured, whereas the TRANS assay evaluates changes in activities of exogenous, chimeric NR-Gal4 proteins. […]

Structure (SMILES) | outcome
ClCCNCCCl | inactive
CCOP(=O)(Cl)Cl | inactive
